Earlier results on one molecule are cited in patent US4910152A, “Method for binding opioid receptors” (priority 1986, dated 1990).

The data set concerns opiate receptors. The following applies: animals and humans; cited from earlier work.

Take `C=CCN1CC[C@]23c4c5ccc(O)c4O[C@H]2C(=O)CC[C@@]3(O)[C@H]1C5` [naloxone, reference compound]: the “reduction of food intake” value is reported as “reduces food intake”.
